Measurements reported in patent US11767344B2, “Pharmaceutically acceptable salts of polypeptides and methods of inhibiting the interaction between psd-95 and n-methyl-d-aspartic acid receptor (nmdar)” (BIOCELLS (BEIJING) BIOTECH CO., LTD., priority 2017, dated 2023).

Sequences of proteins named here, by UniProt entry; tags and fusion partners are left off. Residues count along the entry.
UniProt P78352, 61-249 limits assumed: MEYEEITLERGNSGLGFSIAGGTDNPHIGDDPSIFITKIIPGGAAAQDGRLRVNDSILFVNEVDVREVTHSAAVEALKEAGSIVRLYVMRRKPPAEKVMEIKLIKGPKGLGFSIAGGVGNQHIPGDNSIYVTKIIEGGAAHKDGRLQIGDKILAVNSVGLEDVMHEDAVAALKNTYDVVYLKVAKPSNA

Target: PDZ1/2 domain (Homo sapiens, UniProt P78352)
Conditions: Biacore 3000, CM5 chip, 1:1 binding model

CC[C@H](C)[C@H](NC(=O)[C@H](CCC(=O)O)NC(=O)[C@@H](NC(=O)[C@H](CC(=O)O)NC(=O)[C@H](CC(C)C)NC(=O)[C@H](CC(C)C)NC(=O)[C@H](CCCCN)NC(=O)[C@H](CCC(=O)O)NC(=O)[C@H](Cc1ccc(O)cc1)NC(=O)[C@H](CCCNC(=N)N)NC(=O)[C@H](CCCNC(=N)N)NC(=O)[C@H](CCCNC(=N)N)NC(=O)[C@H](CCC(N)=O)NC(=O)[C@H](CCCNC(=N)N)NC(=O)[C@H](CCCNC(=N)N)NC(=O)[C@H](CCCCN)NC(=O)[C@H](CCCCN)NC(=O)[C@H](CCCNC(=N)N)NC(=O)CNC(=O)[C@@H](N)Cc1ccc(O)cc1)[C@@H](C)O)C(=O)O [P5]
Kd: 29.9 nM
